Assay [1] is filed under the species Mus musculus. As to the kind of experiment: Selectivity ratio of Ki for mouse DOR to Ki for mouse MOR.
The species entered for assay [2] is Mus musculus. Description: Selectivity ratio of Ki for mouse KOR to Ki for mouse MOR.

In the case of `O=C(N[C@H]1CC[C@@]2(O)[C@H]3Cc4ccc(O)c5c4[C@@]2(CCN3CC2CC2)[C@H]1O5)c1ncc2ccccc2c1O`, the Ratio Ki in the assay listed under Mus musculus [1] is 8.9; in the assay listed under Mus musculus [2], 73.
On to `O=C(N[C@H]1CC[C@@]2(O)[C@H]3Cc4ccc(O)c5c4[C@@]2(CCN3CC2CC2)[C@H]1O5)c1cc2ccccc2c(Cl)n1`, for which the Ratio Ki is 8.6 in the assay filed under Mus musculus [1] and 63 in the assay filed under Mus musculus [2].

For the origin of these results see ChEMBL document CHEMBL3400112, “Design, syntheses, and pharmacological characterization of 17-cyclopropylmethyl-3,14β-dihydroxy-4,5α-epoxy-6α-(isoquinoline-3'-carboxamido)morphinan analogues as opioid receptor ligands” (Bioorg Med Chem, 2015).
